Earlier results as cited in patent US12054498B2, “Heteroaromatic macrocyclic ether chemotherapeutic agents” (Nuvalent, Inc., priority 2020, dated 2024).

System: ALK-positive NSCLC
Conditions: ALK-positive NSCLC and other cancers; cited from earlier work

For C[C@@H](Oc1cc(-c2cnn(C3CCNCC3)c2)cnc1N)c1c(Cl)ccc(F)c1Cl [Crizotinib, crizotinib], the median progression-free survival is listed as 8-11 months and the overall response rate is listed as 60-80%.
